Tested on: A2780 cells
Test: Assay 2: In-Vitro Cell Proliferation Assay (A2780 cells, SRB readout, 72 hours);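 note: viable cells counted via sulforhodamine B staining, absorbance at 570 nm, after 72 h exposure at 37 °C, DMSO 0.1% as control, media-only background subtracted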
Assay type: cell-based
Settings: Homo sapiens, A2780, 72 h, read-out: Cell Proliferation (IC50)

Which IC50 does the source give for O=C(NCc1ccc(S(=O)(=O)N2CCN(C3COC3)CC2)cc1)c1cc2ccncc2o1 [Example 149, Furo[2,3-c]pyridine-2-carboxylic acid 4-(4-oxetan-3-yl-piperazine-lsulfonyl)-benzylamide] here?
The IC50 was 0.023 µM.
